For orientation: Ki means a dissociation constant, usually derived from enzyme kinetics or from competition with a known ligand. Usually Kd stands for the free concentration of one partner at which half of the binding sites on the other are occupied at equilibrium, for simple one-to-one binding. For orientation: Km means the substrate concentration at which the rate is half of its maximum.

By UniProt entry, the sequences of proteins in these tests, tags left out. Where a name states a change or a piece, a line headed by the entry shows the natural chain unless it says otherwise. Residues count along the entry.
UniProt P05982, 2-274 limits assumed: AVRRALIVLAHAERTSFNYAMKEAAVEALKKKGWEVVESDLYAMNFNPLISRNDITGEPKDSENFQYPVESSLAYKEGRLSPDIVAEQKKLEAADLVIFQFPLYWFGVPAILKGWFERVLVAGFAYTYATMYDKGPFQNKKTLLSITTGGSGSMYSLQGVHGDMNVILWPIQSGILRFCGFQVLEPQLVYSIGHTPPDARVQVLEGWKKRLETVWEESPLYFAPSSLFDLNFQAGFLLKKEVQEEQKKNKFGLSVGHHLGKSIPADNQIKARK
UniProt P00388: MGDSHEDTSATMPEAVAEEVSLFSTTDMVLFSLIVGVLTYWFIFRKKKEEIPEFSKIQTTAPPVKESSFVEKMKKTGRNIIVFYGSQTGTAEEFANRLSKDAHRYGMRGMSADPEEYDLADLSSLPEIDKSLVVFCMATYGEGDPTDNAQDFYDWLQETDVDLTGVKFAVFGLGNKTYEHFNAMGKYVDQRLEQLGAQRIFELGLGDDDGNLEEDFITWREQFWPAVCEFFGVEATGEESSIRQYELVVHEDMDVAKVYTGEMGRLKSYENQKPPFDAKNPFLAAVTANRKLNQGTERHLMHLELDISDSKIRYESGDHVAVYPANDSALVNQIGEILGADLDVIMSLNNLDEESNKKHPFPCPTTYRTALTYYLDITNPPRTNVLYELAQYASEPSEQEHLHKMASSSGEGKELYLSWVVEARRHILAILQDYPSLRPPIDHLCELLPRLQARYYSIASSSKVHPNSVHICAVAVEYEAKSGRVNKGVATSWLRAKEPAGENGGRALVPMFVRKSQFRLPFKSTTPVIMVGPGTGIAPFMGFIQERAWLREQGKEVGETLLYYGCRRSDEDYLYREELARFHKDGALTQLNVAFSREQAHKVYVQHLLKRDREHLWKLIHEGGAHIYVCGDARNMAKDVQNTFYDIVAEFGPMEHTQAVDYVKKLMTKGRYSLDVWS

In data set [1] the target is T1, NAD(P)H:quinone oxidoreductase (NQO1) (Rattus norvegicus, UniProt P05982). Nature of the data set: Steady-state kinetics of reduction by NAD(P)H:quinone oxidoreductase (NADPH oxidation). The conditions noted are these: for kcat of NQO1-catalyzed reduction (Table 5): BFXs; for kcat, catalytic constant of reduction by NQO1: pH 7.0, 25 °C, NADPH 150 µM.
Data set [2] has as its target T1, NAD(P)H:quinone oxidoreductase (NQO1). Briefly: Temperature dependence of NQO1-catalyzed reduction (Eyring plots, activation parameters). The settings on record: BFXs, seven temperatures 15-45 °C.
The target is the same in data set [3]. Nature of the data set: Inhibition of NQO1 quinone reductase reaction (menadione-mediated reduction of cytochrome c). The conditions noted are these: BFXs, 4 µM menadione, 50 µM cytochrome c; for Ki: read-out: Ki, inhibition constant of NQO1, competitive with respect to NADPH.
For data set [4] the target is unchanged. The conditions noted are these: cited from earlier work.
For data set [5] the target is unchanged. The conditions noted are these: cited from earlier work. The source holds these as a separate data set.
The conditions of data set [6]: experimental; ref [16],[24]; cited from earlier work.
Data set [7] has as its target T1, NAD(P)H:quinone oxidoreductase (NQO1). The settings on record: read-out: Ki, inhibition constant of NQO1; NACs; ref [20]; cited from earlier work.
Data set [8] concerns NQO1 (oxidized enzyme form). The conditions noted are these: read-out: Kd of complex between oxidized NQO1 and NADPH; assumed from transient kinetics; ref [36]; cited from earlier work.
Data set [9] deals with T1, NAD(P)H:quinone oxidoreductase (NQO1). Nature of the data set: Redox-cycling test: O2 uptake, cytochrome c reduction and oxidation of excess NADPH during NQO1-catalyzed reduction. The conditions noted are these: for O2 uptake accompanying reduction by NQO1: compared with NADPH oxidation rate and intrinsic NADPH-oxidase activity of NQO1 (0.05 ± 0.02 s^−1).
Data set [10] has the same target. Nature of the data set: LC-MS identification of NQO1-catalyzed reduction product.
Data set [11] deals with T2, NADPH:cytochrome P-450 reductase (P-450R) (Rattus norvegicus, UniProt P00388). Nature of the data set: LC-MS identification of P-450R-catalyzed reduction product.
Data set [12] deals with T2, NADPH:cytochrome P-450 reductase (P-450R). Nature of the data set: Redox-cycling test: O2 uptake during P-450R-catalyzed reduction. The conditions noted are these: compared with NADPH oxidation rate and intrinsic NADPH-oxidase activity (0.11 ± 0.02 s^−1).

Where two headings read alike, the source gives them in different places.

Regarding `[O-][n+]1onc2cc(Cl)c(Cl)cc21`, in data set [1], the “kcat of NQO1-catalyzed reduction (Table 5)” value came to 6.9 ± 0.1 s⁻¹ and the “kcat, catalytic constant of reduction by NQO1” value (“kcat … of reduction by NQO1” for short) is 6.9 ± 0.1 s⁻¹. Moreover, in data set [2], the “∆H^≠, activation enthalpy of NQO1-catalyzed reduction” value is 7.378 ± 0.406 kcal/mol and the “∆S^≠, activation entropy of NQO1-catalyzed reduction” value was −46.06 ± 5.72 eu. In addition, in [3], the inhibition constant (Ki) was 22.1 µM.

As for `Cc1ccc2c(c1)no[n+]2[O-]`, the “kcat … of reduction by NQO1” value in data set [1] is 2.4 ± 0.4 s⁻¹. Also, in data set [3], the Ki stood at 25.7 µM.

Regarding 2-Hydroxy-1,4-nathphoquinone, the “kcat of NQO1-catalyzed reduction (Table 5)” value in data set [4] (quinones, ref [37]) was 232 ± 25 s⁻¹. Besides, in data set [5] (quinones, ref [37]), the “∆H^≠, activation enthalpy of NQO1-catalyzed reduction” value was 2.414 ± 0.801 kcal/mol and the “∆S^≠, activation entropy of NQO1-catalyzed reduction” value is −84.43 ± 8.30 eu.

For `[O-][n+]1onc2cc(C(F)(F)F)ccc21`, the “kcat … of reduction by NQO1” value in data set [1] worked out at 7.6 ± 0.9 s⁻¹. Moreover, in data set [3], the inhibition constant (Ki) came out at 49 µM.

As to `O=[N+]([O-])c1ccc([N+](=O)[O-])cc1`, the “E^1_7, single-electron reduction potential” value in [6] is −0.257 V. Moreover, in [4] (nitroaromatic, ref [23]), the “kcat of NQO1-catalyzed reduction (Table 5)” value was 0.6 ± 0.1 s⁻¹. In [7], the inhibitory constant (Ki) is 200 µM. In [5] (nitroaromatic, ref [23]), the “∆H^≠, activation enthalpy of NQO1-catalyzed reduction” value is 12.09 ± 2.464 kcal/mol and the “∆S^≠, activation entropy of NQO1-catalyzed reduction” value is listed as −8.81 ± 2.25 eu. The “kcat … of reduction by NQO1” value in [1] turned out to be 0.6 ± 0.1 s⁻¹.

With NADPH, the dissociation constant (Kd) in data set [8] is greater than 500 µM. The Km in data set [1] (read-out: apparent Km(NADPH), predicted as kcat/(kcat/Km(NADPH)) for more reactive BFXs) is less than 1 µM.

On to `[O-][n+]1onc2cc(Cl)ccc21`, for which the “kcat … of reduction by NQO1” value in data set [1] is 5.6 ± 0.6 s⁻¹. Also, in [3], the Ki came to 33.8 µM. Besides, the “equivalents of NADPH oxidized in the first (fast) phase” value in data set [9] (NQO1, 500 µM NADPH, 50 µM compound, monitored at 305 nm) is reported as “approximately three equivalents of NADPH were oxidized in the first (fast) phase”. Further, in [9], the “O2 uptake accompanying reduction by NQO1” value is reported as “slow O2 uptake”.

For the molecule `O=[N+]([O-])c1ccccc1[N+](=O)[O-]`, the “E^1_7, single-electron reduction potential” value in data set [6] was −0.287 V. Further, the “kcat … of reduction by NQO1” value in data set [1] is less than 0.1 s⁻¹.

`CC1=C(C)C(=O)C(C)=C(C)C1=O`: the “kcat of NQO1-catalyzed reduction (Table 5)” value in [4] (quinones, ref [37]) is 1000 ± 90 s⁻¹. In addition, in data set [5] (quinones, ref [37]), the “∆H^≠, activation enthalpy of NQO1-catalyzed reduction” value was 1.06 ± 0.251 kcal/mol and the “∆S^≠, activation entropy of NQO1-catalyzed reduction” value is reported as −76.09 ± 3.44 eu.

Consider `COc1ccc2c(c1)no[n+]2[O-]`, for which, in data set [1], the “kcat … of reduction by NQO1” value was 4.4 ± 0.1 s⁻¹. In addition, the inhibition constant Ki in data set [3] worked out at 32.9 µM.

On to `Cc1cc2no[n+]([O-])c2cc1C`, for which the “kcat … of reduction by NQO1” value in data set [1] is 1.8 ± 0.2 s⁻¹. Besides, the inhibition constant Ki in data set [3] was 29.3 µM.

For `O/N=C1\C=CC=C\C1=N/O`, the “reduction product identified by LC-MS” value in data set [10] and in data set [11] was “formation of PHADA” throughout. The “O2 uptake accompanying reduction by P-450R” value in [12] is listed as “slow O2 uptake”. In addition, the “rate of reduction of cytochrome c as share of NADPH oxidation rate” value in data set [9] (NQO1, cytochrome c 50 μM) is 30%–35%. Besides, the “O2 uptake accompanying reduction by NQO1” value in data set [9] was “slow O2 uptake”. Also, the “direct reduction of cytochrome c in the absence of NQO1” value in data set [9] (control without enzyme) was “did not occur”.

Take `O=c1oc2ccccc2c(O)c1Cc1c(O)c2ccccc2oc1=O`: in data set [1] (1 μM inhibitor), the “effect on NQO1-catalyzed reduction of BFXs” value was “inhibited”.

For `O=[N+]([O-])c1ccccc1`, the “E^1_7, single-electron reduction potential” value in data set [6] is −0.485 V. The Ki in data set [7] is 900 µM. Besides, the “kcat … of reduction by NQO1” value in data set [1] is less than 0.1 s⁻¹.

In the case of `[O-][n+]1onc2ccccc21`, the “reduction product identified by LC-MS” value in data set [10] is given as 2,3-diaminophenazine (PHADA). The “reduction product identified by LC-MS” value in [11] was 2,3-diaminophenazine. Besides, in data set [1], the “kcat of NQO1-catalyzed reduction (Table 5)” value is 11.0 ± 1.5 s⁻¹ and the “kcat … of reduction by NQO1” value worked out at 11.0 ± 1.5 s⁻¹. In data set [2], the “∆H^≠, activation enthalpy of NQO1-catalyzed reduction” value is 7.278 ± 1.54 kcal/mol and the “∆S^≠, activation entropy of NQO1-catalyzed reduction” value is reported as −42.52 ± 8.30 eu. Further, in data set [3], the Ki stood at 20.3 µM.

As to `[O-][n+]1onc2cc3c(cc21)OCCO3`, the “kcat … of reduction by NQO1” value in data set [1] was determined as 0.7 ± 0.1 s⁻¹. In data set [3], the Ki was 112 µM.

Regarding `[O-][n+]1onc2c1ccc1no[n+]([O-])c12`, the “kcat … of reduction by NQO1” value in [1] came out at 2.3 ± 0.4 s⁻¹. Further, in [3], the “εmax, maximal degree of inhibition of NQO1” value worked out at 100% and the inhibitory constant (Ki) turned out to be 41.5 µM. For the same molecule, the “O2 uptake accompanying reduction by NQO1” value in data set [9] is “exhaustion of excess amount of O2 was observed”.

Turning to `[O-][n+]1onc2cc3c(cc21)OCO3`, the “kcat … of reduction by NQO1” value in [1] was determined as 1.2 ± 0.4 s⁻¹. The Ki in [3] is 110 µM.

As to `COc1cc2no[n+]([O-])c2cc1OC`, in data set [1], the “kcat … of reduction by NQO1” value stood at 1.1 ± 0.1 s⁻¹. In addition, the inhibition constant Ki in [3] was 55.3 µM.

The values are drawn from PMC4284768, “The Study of NADPH-Dependent Flavoenzyme-Catalyzed Reduction of Benzo[1,2-c]1,2,5-oxadiazole N-Oxides (Benzofuroxans)” (2014).
